Results: ChEMBL document CHEMBL1649326, “First report of the multidrug resistance gene cfr and the phenicol resistance gene fexA in a Bacillus strain from swine feces” (2010)

Test system: Staphylococcus aureus
Settings: RN4220, Feces

GENTAMICIN
MIC: 0.5 µg/mL
